# Antibody variant affinities, Ab-14 light chain, assay B

The measurements come from Li et al. 2023 (doi:10.1038/s41467-023-39022-2) through the FLAb antibody collection.

The target is the same throughout: PDVDLGDISGINAS, from the HR2 region of SARS-CoV-2 spike.

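Phage display of a naive human antibody library on the peptide gave the parent. This is the validation round: designs drawn from the data on random variants, tested in the same kind of assay. Their group label is 14L_En_Gibbs (En: ensemble of fine-tuned language models; Gibbs: Gibbs sampling). The assay is AlphaSeq: two haploid yeast populations carry antibody and antigen on their surface. The frequency of each diploid, read from paired DNA barcodes, reflects how well the two displayed proteins bind. A regression on co-assayed BCL2-family reference pairs converts the normalised counts of each replicate to an apparent Kd. Mating was done six times.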

Ab-14 is the parent antibody, in scFv form: VH, then three GGGGS repeats, then VL. The heavy chain is unchanged in all variants.
VH: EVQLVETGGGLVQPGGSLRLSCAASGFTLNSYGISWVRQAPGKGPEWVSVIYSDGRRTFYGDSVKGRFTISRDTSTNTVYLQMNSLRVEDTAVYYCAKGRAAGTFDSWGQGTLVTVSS
VL: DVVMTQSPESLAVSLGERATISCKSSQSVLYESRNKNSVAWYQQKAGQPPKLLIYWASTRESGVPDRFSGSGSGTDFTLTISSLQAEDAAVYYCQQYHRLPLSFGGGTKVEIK

Variants are written as CDR1, CDR2 and CDR3 of the light chain (limits as in the source). Parent: KSSQSVLYESRNKNSVA, WASTRES, QQYHRLPLS.
The read-out is the apparent dissociation constant on a log10 scale (nM): the lower, the stronger.
Replicates are averaged; those with no signal do not enter the mean.
Where no diploid with the target was found in that replicate, the entry reads "nd": below detection, most likely a poor binder, though not proof of it.
As a blank, each scFv also met three strains without target: over all light chain designs, 4% of these pairings were detected, typically at 2.64 and seldom below 1.59. For each scFv, signals with the empty controls are counted beside the result, with their mean in brackets.
Values of this round are not directly comparable with the first-round values of the same sequences.
Of ten entries with the parent sequence, four were seen in most replicates (averages 0.34 to 2.37), three in one and three in none, so single entries are noisy.
In the paper, a design with two or fewer of six values counts as a poor binder.

CDR-L1	CDR-L2	CDR-L3	log10 Kd, replicates	mean log10 Kd (nM)	control signals
TFDHSYRFGALNTDSIA	HAEMRVA	QMYYRLPLM	nd nd nd nd nd nd	nd	0/18
KLWMSPLEGQSELQAVA	QAEVLRQ	QQYNMLPLS	2.09 0.92 nd -0.08 2.20 nd	1.28	1/18 (1.57)
IIEQGEYEQEQHKNAIA	DGHERMR	QQYYKLPLV	0.22 0.12 0.39 0.38 0.34 0.28	0.29	1/18 (2.73)
NLSIEMSYYYENRYNIA	EMTVREY	QHYSRLPLA	nd nd nd nd nd nd	nd	0/18
FLAYASDQTGLQKNAIA	QVNLKEN	QQYERLPLA	nd nd nd nd 1.95 2.54	2.25	1/18 (2.10)
KLFDRTMEEIVNQRAVA	EDNVRSV	QQYSQLPLT	1.29 1.30 1.06 1.76 1.61 1.70	1.45	1/18 (2.37)
KFMISLEYQMAEQNAIA	HAEISTV	QQYSRLPID	nd nd nd nd nd nd	nd	0/18
KIRVQQYSQSEMESNIA	QESVRHQ	QQYFHLPLS	1.29 nd nd 2.66 1.40 1.50	1.72	1/18 (1.53)
KLMVFPTNAGMTQANIA	DASHSLD	QQYERLPLM	0.65 0.47 0.63 0.44 0.50 0.59	0.54	0/18
KVDISATVQGMHKSGIA	EHDMRVG	QQYFRLPLA	0.32 0.23 0.37 0.32 0.30 0.49	0.34	2/18 (2.42)
KVQLGLERYNGDYSAVA	GETQKGD	QQYFQLPLG	1.61 0.95 1.35 0.88 1.05 1.08	1.15	1/18 (3.12)
RLQADDNGYEGMRNNVA	DGGMVRM	QQYARLPLM	0.41 0.35 0.28 0.51 0.39 0.54	0.41	1/18 (2.50)
TMDFQDLMWQYDANNIA	GATLSIE	QQYGRLPLT	-0.40 0.68 0.42 0.11 0.16 0.99	0.33	0/18
SLRAMILDWDNKMQNIA	DVHMREQ	QQYFRLPIV	1.56 0.84 0.73 1.08 0.88 1.27	1.06	1/18 (2.76)
VMQMQNDRMQDAAKNIA	GVDMRET	QQYFRLPFL	0.75 0.81 0.41 0.48 0.38 0.65	0.58	0/18
KIQWYQLEIRDPGSAVA	EASVRYN	QQYMRLPLE	nd nd nd nd nd nd	nd	1/18 (0.67)
KFMISLEYQMAEENAIA	HAEISTV	QQYSRLPID	nd nd nd nd nd nd	nd	0/18
NVRMSLGYVQNVGSAVA	DASQVEM	QQYYTLPLT	1.31 1.45 1.53 0.74 1.04 1.68	1.29	0/18
NFSYALFGMDAKKKSIA	ENEVTEY	QQYAKLPLT	nd nd nd nd nd nd	nd	0/18
GDFFQMDGPYEEKENVA	NGNIREP	QQYQRLPLT	0.24 -0.10 0.29 0.46 0.07 0.43	0.23	1/18 (4.61)
SIKHGEAKNQKGDDNVA	NEAAKIV	QQYYRLPLS	nd 1.53 nd 1.32 2.27 1.32	1.61	1/18 (1.78)
QLQFLDVQYGVNEQAIA	EENQRMQ	QHYFRLPLS	1.37 0.95 1.57 2.68 2.10 2.19	1.81	0/18
KFQQESNNMNDNQNSVA	DESMVQY	QHYWRLPLT	0.06 0.16 0.74 0.14 1.35 1.73	0.70	0/18
NLQNIGSELSVWKNAIA	DVNIKES	QQYFRLPLL	0.44 0.21 0.34 0.17 0.32 0.22	0.28	0/18
KIDENTNHGANRQNNIA	EARTVGA	QQYFRLPII	0.92 1.04 0.25 0.62 0.33 0.51	0.61	0/18
SLHLYTNVEENNNNSIA	EKSYRAY	QQYAHLPLV	1.56 1.33 0.87 1.41 1.25 1.42	1.31	2/18 (3.57)
YMSMYLDMQQNIQCGVA	DATTRNA	QQYQRLPLS	nd 1.57 2.47 1.28 1.50 nd	1.70	0/18
MLTRFNLQNQGVSNNIA	DTNQVQE	QQYFRLPFA	0.75 0.58 0.46 0.69 0.83 0.63	0.66	0/18
RIQMTDLEGRMAWSNIA	DNEESYR	QQYVRLPLY	nd nd 0.77 nd nd nd	0.77	0/18
KLMNQMGGIQIMKNSIA	NLEIGAR	QQYAHLPLV	nd nd nd nd nd nd	nd	0/18
NFGQKMALYTGQRYSIA	DHTVRAD	QQYSRLPLT	0.42 0.32 0.23 0.05 0.20 0.27	0.25	0/18
ILSDHAVNQYDEADNIA	DKTETAV	QQYARLPLS	1.53 1.16 1.15 1.76 0.99 1.81	1.40	1/18 (2.68)
KIQDNLGTLMKQINSVA	SSEEKSD	QSYFRLPLI	0.84 1.16 0.43 1.21 0.69 0.73	0.84	0/18
QIMEEQSMRTEATWNIA	QGEQKVH	QQYFRLPLA	0.81 0.58 1.16 0.81 0.58 0.89	0.80	0/18
SMSNLQILPDVWKNSIA	DGEHVEY	QQYSRLPLT	0.36 0.55 0.11 0.14 0.20 0.61	0.33	1/18 (2.53)
MLTRFNLENQGVSNNIA	DTNQVQE	QQYFRLPFA	0.60 0.31 0.32 0.46 0.18 0.29	0.36	0/18
VLGQNCSEYEMYCASIA	DAQHREA	QQYYRLPFV	2.50 3.13 1.70 1.77 1.91 2.55	2.26	0/18
KLSEFEQGNTQHANAVA	EMREVQH	QHYHRLPLM	1.61 nd 2.36 1.24 nd 1.81	1.76	0/18
KIELDLTRYNAGGANIA	HETMRAQ	QQYSHLPLI	0.77 0.68 0.50 0.74 0.72 0.74	0.69	2/18 (2.02)
NLAMALDQGILIKNNIA	SDNLREN	QQYERLPLI	1.02 1.37 1.27 1.31 0.93 1.53	1.24	1/18 (2.14)
FMEMDFQENSGNHNSIA	SEEVKTR	QHYARLPLS	nd nd nd nd nd nd	nd	0/18
KISINQMHEYKMRSNIA	NTSQKAM	QQYFHLPLM	0.80 0.92 0.43 0.76 0.74 1.18	0.80	0/18
KLDASMYVGTEAKRAIA	QDEMLVH	QQYHRLPLM	0.63 0.74 0.75 0.48 0.47 0.61	0.61	0/18